Measured values published in patent US11203777B2, “Method of preparing sterilized compositions for stabilization of extracellular nucleic acids” (Qiagen GmbH, priority 2015, dated 2021).

Test: HPLC quantification of caspase inhibitor in stabilization reagent before and after gamma irradiation
Format: physicochemical
Experimental: Caspase inhibitor (Q-VD-OPh) was dissolved and diluted in DMSO for generation of a standard curve. Concentrations of 7.5, 15, 30 and 60 μg/ml were used to generate the standard curve.
Stabilization reagents containing a mixture of caspase inhibitor, EDTA, DMPA and PEG were tested before and after gamma irradiation. Unique peaks for caspase inhibitor were identified and compared to the standard curve for total quantification of caspase inhibitor. The concentration of caspase inhibitor was determined before and after irradiation, and these concentrations were compared for relative quantification.
For the production of PAXgene Blood ccfDNA Alpha blood collection tubes (Alpha BCT), BD standard tubes for 10 ml blood draw were filled with 1.3-1.7 ml ccfDNA stabilization reagent. The exemplary stabilization reagents tested comprised a mixture of caspase inhibitor (Q-VD-OPh), K2EDTA, DMPA, PEG300 and PEG10000, according to PCT/EP2015/055699. A vacuum was applied to the tubes to allow for a 10.25 ml blood draw. Tubes were sterilized by gamma irradiation using Cobalt-60 as energetic gamma ray source in a range of 5 to 35 kGy. […]
Stabilization reagents were produced with or without the addition of radical scavengers and sterilized in bulk by gamma irradiation. The caspase inhibitor concentration was measured by HPLC before and after irradiation to determine the effect of scavenger addition on caspase inhibitor degradation during sterilization by gamma irradiation.
Stabilization reagents according to PCT/EP2015/055699 were produced with or without the addition of radical scavengers in different concentrations and with different concentrations of caspase inhibitor. PAXgene Blood ccfDNA Alpha tubes were produced by filling 1.7 ml of the respective stabilization reagent into a standard Vacutainer. Tubes were sterilized by gamma irradiation with different energy levels. The caspase inhibitor concentration was measured by HPLC before and after irradiation (see Table 7 below).

HPLC Testing [C-Inh] (scavenger 0.5 mg/ml, casp-inh. 5 μM, 0 kGy): 19.3 µg/mL | HPLC Testing [C-Inh] (scavenger 0.5 mg/ml, casp-inh. 5 μM, 10 kGy): 16.2 µg/mL | HPLC Testing [C-Inh] (scavenger 0.5 mg/ml, casp-inh. 5 μM, 20 kGy): 13.7 µg/mL | HPLC Testing [C-Inh] (scavenger 0.5 mg/ml, casp-inh. 5 μM, 30 kGy): 12.3 µg/mL | HPLC Testing [C-Inh] (scavenger 1 mg/ml, casp-inh. 5 μM, 0 kGy): 18.5 µg/mL | HPLC Testing [C-Inh] (scavenger 1 mg/ml, casp-inh. 5 μM, 10 kGy): 15.8 µg/mL | HPLC Testing [C-Inh] (scavenger 1 mg/ml, casp-inh. 5 μM, 20 kGy): 13.4 µg/mL | HPLC Testing [C-Inh] (scavenger 1 mg/ml, casp-inh. 5 μM, 30 kGy): 12.5 µg/mL | HPLC Testing [C-Inh] (scavenger 2 mg/ml, casp-inh. 5 μM, 0 kGy): 19.7 µg/mL | HPLC Testing [C-Inh] (scavenger 2 mg/ml, casp-inh. 5 μM, 10 kGy): 17.2 µg/mL | HPLC Testing [C-Inh] (scavenger 2 mg/ml, casp-inh. 5 μM, 20 kGy): 15.3 µg/mL | HPLC Testing [C-Inh] (scavenger 2 mg/ml, casp-inh. 5 μM, 30 kGy): 14.3 µg/mL | HPLC Testing [C-Inh] (scavenger 2 mg/ml, casp-inh. 10 μM, 0 kGy): 37.8 µg/mL | HPLC Testing [C-Inh] (scavenger 2 mg/ml, casp-inh. 10 μM, 10 kGy): 33.3 µg/mL | HPLC Testing [C-Inh] (scavenger 2 mg/ml, casp-inh. 10 μM, 20 kGy): 30.7 µg/mL | HPLC Testing [C-Inh] (scavenger 2 mg/ml, casp-inh. 10 μM, 30 kGy): 27.6 µg/mL | HPLC Testing [C-Inh] (scavenger 2 mg/ml, casp-inh. 15 μM, 0 kGy): 56.0 µg/mL | HPLC Testing [C-Inh] (scavenger 2 mg/ml, casp-inh. 15 μM, 10 kGy): 50.0 µg/mL | HPLC Testing [C-Inh] (scavenger 2 mg/ml, casp-inh. 15 μM, 30 kGy): 41.2 µg/mL | HPLC Testing [C-Inh] (scavenger 4 mg/ml, casp-inh. 5 μM, 0 kGy): 16.6 µg/mL | HPLC Testing [C-Inh] (scavenger 4 mg/ml, casp-inh. 5 μM, 10 kGy): 14.8 µg/mL | HPLC Testing [C-Inh] (scavenger 4 mg/ml, casp-inh. 5 μM, 20 kGy): 13.4 µg/mL | HPLC Testing [C-Inh] (scavenger 4 mg/ml, casp-inh. 5 μM, 30 kGy): 12.8 µg/mL
SMILES: CC(=O)N[C@@H](CS)C(=O)O [N-acetyl-L-cysteine]
